Only a part is listed here, and it is no random draw. The source made the active and inactive calls. Rule as the data show it: active = inhibition above about 45% (passing the limit was not always enough); inconclusive = no clear call, values can overlap the other calls.

Protein sequences, listed by entry. Tags and fused reporters are not part of them. Lines headed by an entry give the natural chain unless they say otherwise; changes in a name come on top.
UniProt P61088: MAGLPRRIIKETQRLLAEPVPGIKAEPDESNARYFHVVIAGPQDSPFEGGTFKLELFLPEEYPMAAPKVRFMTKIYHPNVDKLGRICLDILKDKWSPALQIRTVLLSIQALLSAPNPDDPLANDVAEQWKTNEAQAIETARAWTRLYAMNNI

This assay addresses Ubiquitin-conjugating enzyme E2 N (Homo sapiens) (UniProt P61088). The assay is described as follows: blockers of UBC13 ubiquitin chain synthesis – biochemical, TR-FRET, uHTS, primary screen (AID 485273). To be noted: UBC13 polyubiquitin chain formation, at 20 µM, active compounds read high.
By inhibition is commonly meant the drop in the measured response relative to a control, in per cent. For the compound `CCC(C)N(CC(C)C)C(=S)SC(NC(C)=O)C(Cl)(Cl)Cl` (stereo not drawn), the inhibition was inactive: 4.5%.

Regarding `O=C(OC1CN2CCC1CC2)c1cccc([N+](=O)[O-])c1` (stereo not drawn), the inhibition was inactive: 0.6%. As for `CCOC(=O)c1ccc(NC(=O)C(C)(CCl)SC)cc1` (stereo not drawn), the inhibition is inactive: -1.6%. With `O=C(COc1ccccc1)OC1CN2CCC1CC2` (stereo not drawn), the inhibition was inactive: -9.1%. As for `O=C(Nc1ccncc1[N+](=O)[O-])c1ccc([N+](=O)[O-])cc1[N+](=O)[O-]`, the inhibition was inactive: -1.2%. Consider `COP1(=S)c2c(C)nn(CCC#N)c2N=C(c2ccc(F)cc2)N1C` (stereo not drawn), for which the inhibition is inactive: 2.4%.

On to `Cc1cc(SC(NC=O)C(Cl)(Cl)Cl)ncn1` (stereo not drawn), for which the inhibition was inactive: 3.7%. `O=P(Nc1ccccn1)(c1cccc2ccccc12)c1cccc2ccccc12`: the inhibition was inactive: -4%. Next, `CCOC(=O)Nc1cccc([As](=O)(O)O)c1`: inactive: 2.2%. For the compound `CCCCOc1ccc(C(=O)NCC2(N3CCCCC3)CCCCC2)cc1OC`, the inhibition is inactive: 8.1%. On to `Cc1cc(SC(NC(=O)c2ccccc2)C(Cl)(Cl)Cl)nc(C(C)C)n1` (stereo not drawn), for which the inhibition was inactive: 3.8%.

`CCOC(=O)Nc1ccc([As](=O)(O)O)c(O)c1`: the inhibition was inactive: -4.3%. On to `CC(C)NC(=O)NP(=O)(Oc1ccccc1)Oc1ccccc1`, for which the inhibition was inactive: 4.1%.

Regarding `O=C(OC1CN2CCC1CC2)c1cccc2[nH]cnc12` (stereo not drawn), the inhibition is inactive: -5.6%. Next, `CCN(CC)C(=S)SC(NC=O)C(Cl)(Cl)Cl` (stereo not drawn): inactive: -15.6%; `O=[N+]([O-])c1cc([N+](=O)[O-])c(-c2ccn[nH]2)s1`: inactive: -24.9%; `ClCCSc1nnc(-c2cccnc2)o1`: inactive: 1.1%. Consider `CC(C)c1ccc(OP(=O)(Nc2ccccn2)Oc2ccccc2F)cc1` (stereo not drawn), for which the inhibition is inactive: 5.3%. Turning to `Cc1ccc(OP(=O)(Nc2ccc([N+](=O)[O-])cn2)Oc2ccc(C)cc2)cc1`, the inhibition is inactive: 1.7%.

On to `Cc1ccc2nc3c(c(C)c2c1)CC(C(Cl)Cl)S3` (stereo not drawn), for which the inhibition is inactive: 10.9%. On to `C[As](=O)(O)c1cccc(C(=O)O)c1`, for which the inhibition was inactive: 5.5%. As to `O=[As](O)(c1ccc(O)cc1)c1ccccc1O`, the inhibition is inactive: -4.5%. Turning to `COc1cc(C(=O)NCC2(N3CCOCC3)CCCCC2)ccc1OCC(C)C`, the inhibition is inactive: 5.5%.

Consider `COc1ccc(N/C(=N/P(=O)(N2CCOCC2)N2CCOCC2)N2CCOCC2)cc1`, for which the inhibition is inactive: 8.7%. `COc1ccc2nc(NP(=O)(c3ccccc3)c3ccccc3)sc2c1`: the inhibition is inactive: 4.8%. Under `COc1cc(I)ccc1[As](=O)(O)O` stands inactive: 9.2%; under `Cc1c2c(nc3ccccc13)SC(C(Cl)Cl)C2` (stereo not drawn), inactive: 24.6%; under `O=C(OC1CN2CCC1CC2)C12CC3CC(CC(C3)C1)C2` (stereo not drawn), inactive: 1.3%. Under `Cc1cc(=O)[nH]c(N[N+](=O)[O-])n1` stands inactive: -17%. Under `COc1cc(C2NCCC3(OCCO3)C2(C)C)cc(OC)c1OC` (stereo not drawn) stands inactive: 14.3%; under `CCOP(=O)(Nc1cccc2ccccc12)OCC`, inactive: 2.9%. Regarding `Cc1ccc(NCCc2c([N+](=O)[O-])cc([N+](=O)[O-])cc2[N+](=O)[O-])cc1`, the inhibition is inactive: -35.4%.

As for `CCCOP(=S)(Nc1nc(N)cc(=O)[nH]1)OCCC`, the inhibition was inactive: -6.1%. Turning to `Cc1cccc(OCC(=O)OC2CN3CCC2CC3)c1` (stereo not drawn), the inhibition is inactive: 3.2%. Consider `O=[As](O)(c1cccc(O)c1)c1cccc(O)c1`, for which the inhibition was inactive: 11.2%. Next, `O=C(OC1CN2CCC1CC2)c1ccc(Cl)cc1` (stereo not drawn): inactive: 6.8%; `O=[As](O)(O)c1cccnc1`: inactive: -1%. On to `COc1cc(C(=O)NCC2(N3CCOCC3)CCCCC2)cc(Cl)c1OC(C)C`, for which the inhibition was inactive: 4.8%. `CS(=O)(=O)c1ccc(Cl)c(NC(=O)COC(=O)C(O)(c2ccccc2)c2ccccc2)c1`: the inhibition is inactive: 11.2%. In the case of `N#CCCN(C(=O)COC(=O)C(O)(c1ccccc1)c1ccccc1)c1ccc(F)cc1`, the inhibition was inactive: -0.8%. `CN(C(=O)Cc1ccccc1)[C@@H]1CC[C@]2(CCCO2)C[C@H]1N1CCCC1`: the inhibition was inactive: 8.4%.

Regarding `CCOP1(=S)c2c(C)nn(CCC#N)c2N=C(c2ccc(F)cc2)N1C` (stereo not drawn), the inhibition is inactive: 2.9%.

For the compound `O=[N+]([O-])c1ccc2c(c1)nnn2O`, the inhibition is inactive: -3%. With `CN(C)C(=O)c1cc([N+](=O)[O-])cc2c1-c1c(cc([N+](=O)[O-])cc1[N+](=O)[O-])C2=O`, the inhibition was inactive: -123%.

`CN(C(=O)Cc1ccc(Cl)c(Cl)c1)[C@H]1CC[C@@]2(CCCO2)C[C@@H]1N1CCCC1`: the inhibition is inactive: 12.2%. Take `NC(=O)Nc1ccc([As](=O)(O)O)cc1`: the inhibition is inactive: -6.9%. Under `O=C(O)COc1ccc([As](=O)(O)O)cc1[N+](=O)[O-]` stands inactive: 5.6%; under `Nc1ccccc1[As](=O)(O)c1ccccc1`, inactive: -9.3%. `CCOP1(=S)c2c(C)nn(CCC#N)c2N=C(c2ccccc2F)N1C` (stereo not drawn): the inhibition is inactive: 0.7%. `O=P(Nc1nccs1)(Oc1ccccc1)Oc1ccccc1`: the inhibition was inactive: -12.2%. On to `O=P(Nc1nccs1)(c1ccccc1)c1nc2ccccc2s1` (stereo not drawn), for which the inhibition is inactive: -0.4%.

`CS(=O)(=O)c1cc([N+](=O)[O-])c2no[n+]([O-])c2c1`: the inhibition is inactive: -42.6%. Next, `Nc1cccc([As](=O)(O)c2ccccc2)c1`: inactive: -4.9%; `O=[As](O)(c1cccs1)c1cccs1`: inactive: -3.9%. Next, `Cc1ccc(OCC(=O)OC2CN3CCC2CC3)cc1` (stereo not drawn): inactive: 5.8%; `NS(=O)(=O)c1cccc(NC(=O)COC(=O)C(O)(c2ccccc2)c2ccccc2)c1`: inactive: 6.4%; `O=P1(Nc2ccc(Br)cn2)COc2ccccc2OC1`: inactive: -9.1%. As for `O=P1(Nc2ncccn2)COc2ccccc2OC1`, the inhibition was inactive: -13%. As for `CN(C)C1(CNC(=O)c2ccc(S(C)(=O)=O)cc2)CCCCC1`, the inhibition was inactive: -4.1%.

As to `O=C(/C=C/c1ccccc1)OC1CN2CCC1CC2` (stereo not drawn), the inhibition is inactive: 6%. Take `Cc1nn(-c2ccccc2)c2c1P(=O)(N1CCOCC1)N(C)C(c1ccccc1)=N2` (stereo not drawn): the inhibition is inactive: 0.8%. For `Cc1ccc(C(=O)OC2CN3CCC2CC3)cc1` (stereo not drawn), the inhibition was inactive: 3.9%. For `CC1CCC(C(C)C)C(OP(=O)(Nc2ccccn2)c2ccccc2)C1` (stereo not drawn), the inhibition is inactive: -2.5%. Regarding `CN(C(=O)Cc1ccc(Cl)c(Cl)c1)[C@@H]1CCCC[C@H]1N1CCCC1`, the inhibition was inactive: 3.9%. Consider `CC(C)/C=N\N=C(\N)N[N+](=O)[O-]`, for which the inhibition is inactive: -10.5%. `O=[As](O)(c1ccccc1Br)c1ccccc1Br`: the inhibition is inactive: -1.2%. Under `CC1(CBr)Cn2c(nc3ccccc3c2=O)S1` (stereo not drawn) stands inactive: 3.4%; under `COc1ccccc1CNC(=O)COC(=O)C(O)(c1ccccc1)c1ccccc1`, inactive: 0%; under `Clc1n[nH]nc1-c1nn[nH][15n]1`, inactive: 2.9%. Next, `CC(C)(C)C(=O)NC(Sc1ncccn1)C(Cl)(Cl)Cl` (stereo not drawn): inactive: -2.9%. For the compound `CCC1=CC2Cc3nc4ccc(Cl)cc4c(N)c3C(C1)C2` (stereo not drawn), the inhibition is inactive: 10.7%. For the compound `O=P1(Nc2ccccn2)COc2ccccc2OC1`, the inhibition was inactive: -4.7%.

With `CCOP(=O)(NC(=NC(C)c1ccccc1)NC(C)c1ccccc1)OCC` (stereo not drawn), the inhibition was inactive: -0.9%. For the compound `CCOP(=O)(Nc1ccc(C)cn1)OCC`, the inhibition was inactive: 8%. In the case of `CN(CCCl)Cc1cc(Cl)c(NC2=NCCN2)c(Cl)c1`, the inhibition is inactive: 19.4%.

Take `c1nnnn1CCn1cnnn1`: the inhibition was inactive: 0.7%. Under `O=P(Nc1nccs1)(c1ccccc1)c1ccccc1` stands inactive: 2.3%; under `CC(C)C(=O)NC(Sc1ccccc1)C(Cl)(Cl)Cl` (stereo not drawn), inactive: -6.2%; under `O=C(OC1CN2CCC1CC2)c1cccc(Cl)c1` (stereo not drawn), inactive: -3.7%. Turning to `C(Cc1nn[nH]n1)Cc1nn[nH]n1`, the inhibition was inactive: 3.4%. With `Nc1ccc([As](=O)(O)c2ccc([N+](=O)[O-])cc2)cc1`, the inhibition was inactive: -4.3%.

Regarding `O=[As](O)(c1ccccc1)c1ccc(O)cc1`, the inhibition was inactive: -12.1%. For `O=[N+]([O-])c1ncn(CCn2cnc([N+](=O)[O-])n2)n1`, the inhibition was inactive: 3%. Next, `O=P(Nc1nc2ccccc2s1)(c1ccccc1)c1ccccc1`: inactive: 3.8%. With `C[C@H]1OP(=O)(Oc2ccccc2)[C@H](O)[C@H](O)[C@H]1N=[N+]=[N-]` (stereo partly drawn), the inhibition was inactive: 5%. For `CN(C)C1(CNC(=O)c2ccc(Cl)c(S(N)(=O)=O)c2)CCCCC1`, the inhibition was inactive: 6.7%. Regarding `O=P(Nc1ccccn1)(c1ccc(Br)cc1)c1ccc(Br)cc1`, the inhibition was inactive: 6.2%.

Consider `CC(NC(=O)COC(=O)C(O)(c1ccccc1)c1ccccc1)c1ccccc1` (stereo not drawn), for which the inhibition was inactive: 3.7%. As for `Cc1ccccc1OP(=O)(Nc1ccccn1)Oc1ccccc1C`, the inhibition is inactive: 5.5%. Next, `CN(C)C(=O)Oc1noc2ccccc12`: inactive: -6.4%.

With `O=C(OC1CN2CCC1CC2)c1ccccc1` (stereo not drawn), the inhibition is inactive: -4.3%. For the compound `CCC(=O)N1C2C3N(C(=O)CC)C1C1N(C(=O)CC)C(C(N1C(=O)CC)N3C(=O)CC)N2C(=O)CC`, the inhibition is inactive: 2%. As to `COC(=O)c1cc2c(s1)N=C(c1ccccc1)N(C)P2(=O)N1CCOCC1` (stereo not drawn), the inhibition was inactive: -1%. As for `Cc1ccc(OP(=O)(Nc2ccccn2)Oc2ccc(C)cc2)cc1`, the inhibition is inactive: 3.8%. With `CC(=O)NC(SC(=S)N(CC(C)C)CC(C)C)C(Cl)(Cl)Cl` (stereo not drawn), the inhibition is inactive: -11.8%.

For `c1ccc(-c2nn[nH]n2)c(-c2nn[nH]n2)c1`, the inhibition was inactive: -18%. Turning to `CCOC(=O)NC(Sc1ccccc1)C(Cl)(Cl)Cl` (stereo not drawn), the inhibition was inactive: 6.8%.

Regarding `Cc1ccc(NP(=O)(Oc2cccc(C)c2)Oc2cccc(C)c2)nc1`, the inhibition was inactive: -3.9%. With `O=C(NC1CCS(=O)(=O)C1)NP(=S)(Oc1ccccc1)Oc1ccccc1` (stereo not drawn), the inhibition is inactive: 1.3%. Regarding `CCNC(=S)/N=C(\N)N[N+](=O)[O-]`, the inhibition was inactive: -3.1%.

`CC(=O)Nc1ccc([As](=O)(O)O)c(O)c1`: the inhibition is inactive: -4.3%.

Take `CC(=O)Nc1ccc(Oc2c([N+](=O)[O-])cc([N+](=O)[O-])cc2[N+](=O)[O-])cc1`: the inhibition was inactive: -1.3%. Turning to `Cc1ccccc1CN(C)C(=O)COC(=O)C(O)(c1ccccc1)c1ccccc1`, the inhibition was inactive: -2.6%.

(Values after PubChem BioAssay AID485273 (Sanford-Burnham Center for Chemical Genomics, 2010).)
